From US7786137B2, “Bicyclic derivatives as modulators of ion channels” (Vertex Pharmaceuticals Incorporated, priority 2005, dated 2010) come the findings set out here.

Protein sequences, listed by entry. Tags and fused reporters are not part of them.
UniProt Q9NY46, whole entry: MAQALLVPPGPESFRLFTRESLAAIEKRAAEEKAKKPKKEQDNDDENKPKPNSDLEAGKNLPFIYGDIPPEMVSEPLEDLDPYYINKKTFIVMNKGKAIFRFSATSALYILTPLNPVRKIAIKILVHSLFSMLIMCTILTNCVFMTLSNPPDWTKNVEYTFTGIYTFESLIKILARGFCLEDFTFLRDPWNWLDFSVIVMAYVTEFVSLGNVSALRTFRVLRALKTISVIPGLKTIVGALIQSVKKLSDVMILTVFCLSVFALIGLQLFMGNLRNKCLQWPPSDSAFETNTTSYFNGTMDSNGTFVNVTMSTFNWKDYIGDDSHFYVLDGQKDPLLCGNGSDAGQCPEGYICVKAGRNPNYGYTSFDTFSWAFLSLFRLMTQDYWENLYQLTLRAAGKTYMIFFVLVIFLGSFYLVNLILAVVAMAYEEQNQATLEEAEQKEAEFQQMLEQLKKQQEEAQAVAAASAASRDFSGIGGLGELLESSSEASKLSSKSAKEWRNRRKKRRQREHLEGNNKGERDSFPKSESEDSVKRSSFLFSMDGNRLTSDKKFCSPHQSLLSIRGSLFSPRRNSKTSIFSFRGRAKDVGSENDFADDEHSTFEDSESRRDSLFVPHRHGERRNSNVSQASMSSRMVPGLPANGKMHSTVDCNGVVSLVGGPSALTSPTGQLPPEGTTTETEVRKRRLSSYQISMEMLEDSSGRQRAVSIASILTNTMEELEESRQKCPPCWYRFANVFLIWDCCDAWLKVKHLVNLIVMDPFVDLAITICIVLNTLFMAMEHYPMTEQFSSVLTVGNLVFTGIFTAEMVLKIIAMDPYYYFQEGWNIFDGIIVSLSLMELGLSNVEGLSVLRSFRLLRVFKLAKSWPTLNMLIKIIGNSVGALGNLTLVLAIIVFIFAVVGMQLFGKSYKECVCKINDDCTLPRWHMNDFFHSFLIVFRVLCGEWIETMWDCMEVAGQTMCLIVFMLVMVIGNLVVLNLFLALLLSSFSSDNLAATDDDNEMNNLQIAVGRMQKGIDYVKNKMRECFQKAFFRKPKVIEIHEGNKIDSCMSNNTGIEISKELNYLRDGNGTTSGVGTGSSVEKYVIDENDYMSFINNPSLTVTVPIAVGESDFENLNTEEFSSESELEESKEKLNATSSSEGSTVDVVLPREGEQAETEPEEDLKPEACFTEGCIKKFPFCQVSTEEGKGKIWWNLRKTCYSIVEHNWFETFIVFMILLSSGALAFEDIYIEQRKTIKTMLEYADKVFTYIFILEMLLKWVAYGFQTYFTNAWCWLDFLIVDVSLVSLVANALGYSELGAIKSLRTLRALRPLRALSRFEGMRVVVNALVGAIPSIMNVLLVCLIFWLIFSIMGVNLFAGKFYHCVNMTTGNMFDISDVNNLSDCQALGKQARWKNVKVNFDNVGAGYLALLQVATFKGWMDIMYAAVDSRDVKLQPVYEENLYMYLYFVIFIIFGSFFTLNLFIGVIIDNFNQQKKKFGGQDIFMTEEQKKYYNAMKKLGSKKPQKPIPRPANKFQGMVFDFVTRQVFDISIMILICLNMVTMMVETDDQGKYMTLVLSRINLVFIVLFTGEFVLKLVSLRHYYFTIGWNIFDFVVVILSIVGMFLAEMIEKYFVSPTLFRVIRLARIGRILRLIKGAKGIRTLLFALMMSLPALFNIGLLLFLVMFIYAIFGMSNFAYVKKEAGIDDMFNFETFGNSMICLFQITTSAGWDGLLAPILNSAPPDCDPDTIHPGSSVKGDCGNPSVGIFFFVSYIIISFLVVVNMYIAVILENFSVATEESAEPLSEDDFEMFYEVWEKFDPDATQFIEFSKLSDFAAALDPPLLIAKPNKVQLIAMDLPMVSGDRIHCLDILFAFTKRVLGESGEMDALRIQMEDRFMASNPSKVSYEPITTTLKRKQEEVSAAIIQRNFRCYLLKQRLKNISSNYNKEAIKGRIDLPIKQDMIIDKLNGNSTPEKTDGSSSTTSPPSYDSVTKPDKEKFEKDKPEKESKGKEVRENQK

This experiment deals with NaV1.3 (Homo sapiens, UniProt Q9NY46). The experiment in a line: VIPR optical membrane potential assay, NaV1.3 inhibition. To be noted: activity against NaV 1.3 channel.

Bounds are passed on as bounds.

By IC50 is commonly meant the concentration needed to halve the response being measured. A low value points to greater potency in that assay. The molecule `Cc1ccc(OC(=O)N2CCc3cc(S(=O)(=O)Nc4nccs4)ccc32)cc1` showed an IC50 above 5 µM.
